Legend:
[1] = tested on: P. berghei ookinete development
[2] = tested on: P. falciparum female gametocytes; assay: P. falciparum female gametogenesis assay (Pf FGAA); conditions: 1: YES; 0: NO

SMILES	Is compound selective in assay? Pb ODA active? [1]	Is compound selective in assay? Pf FGAA active? [2]
CCC(C)(C)n1c(C)cc2c3c(N)nc(N)nc3ccc21 [TCMDC-137307]	0 (key: 1: YES; 0: NO)	
COc1cc(Cn2ccc3c4c(N)nc(N)nc4ccc32)cc(OC)c1OC [TCMDC-137341]	0 (key: 1: YES; 0: NO)	
CC(C)(CN)c1nc(-c2ccc(Cl)c(O)c2)c(-c2ccncc2)[nH]1.Cl [TCMDC-140369]	0 (key: 1: YES; 0: NO)	0 (0: NO)

Source: PMC6753678, “Fueling Open Innovation for Malaria Transmission-Blocking Drugs: Hundreds of Molecules Targeting Early Parasite Mosquito Stages” (Frontiers in Microbiology, 2019)
